For the data set, the system named is human heparinized whole blood (erythrocytes). Nature of the data set: In vitro hemolysis test with co-solvents (study procedure, Drabkin's solution, absorbance 540 nm). To be noted: co-solvent diluted with NaCl 0.9%; intersection of fitted sigmoidal curve with 5% hemolysis line; 10 min at 37° C.

As to Polyethylene glycol 400 [PEG 400], the “max. well tolerated co-solvent concent” value is 42%.

For Polyethylene glycol 300 [PEG 300], the “max. well tolerated co-solvent concent” value was 62%.
